Experimental data taken from article PMC12198282, “Application of a high-density microelectrode array assay using a 3D human iPSC-derived brain microphysiological system model for in vitro neurotoxicity screening of environmental compounds” (Archives of Toxicology, 2025).

Test system: human iPSC-derived 3D BrainSpheres
Assay: BrainSphere MEA assay (HD-MEA, 13-day exposure, concentration-response); for hitc Mean.Spheroid.Burst.Duration: key: 1 (active); 0 (inactive); for hitc Mean.Spheroid.Burst.ISI: key: 1 (active); 0 (inactive); for hitc Mean.Spheroid.Burst.Peak.Firing.Rate: key: 1 (active); 0 (inactive); for hitc Mean.Spheroid.Firing.Rate: key: 1 (active); 0 (inactive); for hitc Mean.Spheroid.IBI: key: 1 (active); 0 (inactive); for hitc Mean.Spheroid.Nonburst.ISI: key: 1 (active); 0 (inactive); for hitc Mean.Spheroid.Spikes.per.Burst.per.Electrode: key: 1 (active); 0 (inactive); for hitc Mean.Spheroid.Spikes.per.Burst: key: 1 (active); 0 (inactive); for hitc Spheroid.Burst.Frequency: key: 1 (active); 0 (inactive); for hitc Spheroid.Spike.Amplitude.90th.Percentile: key: 1 (active); 0 (inactive)
Type: cell-based
Method: A volume of 1 ml of Tergazyme (1% solution in deionized water) was added to each well of the MaxTwo 6-Well Plate (MaxWell Biosystems) and incubated overnight under constant gyratory shaking (88 RPM) at 37 °C and 5% CO2. The next day, Tergazyme solution was removed, and plates were washed with distilled water and ethanol. After remaining ethanol was evaporated, wells were washed with PBS. Then, 200 µl of Poly-D-Lysine (Gibco, A38904 - 01) was added on top of the electrodes and incubated at 37 °C and 5% CO2 for 3 h (humidified). Poly-D-Lysine was then removed, and wells were coated with 100 µl of 0.1 mg/ml laminin coating solution (Sigma-Aldrich, L2020 - 1 mg) and incubated for 2 h at 37 ℃ and 5% CO2 (humidified). The laminin was removed after incubation. Using a 1 ml micropipette, 1 ml of medium containing BrainSpheres (7 weeks differentiated), approximately 25 BrainSpheres per ml, was plated on top of the HD-MEA chip (Fig. 1A). Afterwards, the plate was placed in an incubator at 37 °C and 5% CO2 and moved in circles to accumulate the BrainSpheres on top of the electrode area (Fig. 1A). The plate was kept in an incubator (humidified) for 2 days to allow attachment of the BrainSpheres with no gyratory shaking of the plates.
The MaxTwo high-density microelectrode array system (MaxWell Biosystems AG, Zurich, Switzerland) was used to measure neural activity with MaxTwo 6-well plates, where every well includes an integrated chip with 26,400 platinum electrodes arranged in an area of 3.85 × 2.10 mm^2 ([…]) (Muller et al. [2015]). The data were recorded and analyzed with the MaxLab Live Software (version 22.2.22). First, the MaxLab live ActivityScan Assay was used to identify the activity and positioning of the BrainSpheres on the array by scanning all the 26,400 electrodes in 29 configurations in a well (Assay Parameters: Configuration = Full; Recording time per configuration = 60 s (s)). The settings gain = 512, high-pass-filter (HPF): ~ 1 Hz and spike threshold = 5 X root-mean square (RMS) noise were used for all HD-MEA recordings. Circular regions of interest (ROI) were manually selected in the Activity Map where neuronal activity was apparent by an increased activity (Fig. 2). Over the course of the 13-day experiment, the same selected regions and electrodes were measured using the MaxLab Live Network Assay (600 s recording time).
A custom analysis framework was used to extract the MaxLab Live neuronal metrics for the individual BrainSpheres. For this, electrodes comprising a single ROI (i.e., individual BrainSphere; Fig. 2D) were grouped using distance-based clustering (fcluster method of Scipy library, Python 3.7) and neural metrics were calculated for the clustered electrodes for every ROI separately. Figure 2E presents a raster plot illustrating the activity associated with individual Regions of Interest (ROIs). […] Ten MaxLab Live neural metrics (endpoints) were evaluated from the MaxLab live ActivityScan and Network Assay in this study. See Table 3 for the endpoint definitions, tuned parameters, and activity type (general versus network connectivity).
The BrainSphere MEA assay measured changes in neural activity during a 13-day chemical exposure. The first recording day of the concentration–response screening protocol (day of exposure (DOE) 0) occurred after 7 weeks of BrainSphere differentiation, 48 h after plating on HD-MEA plates (Fig. 1B). The study included at least three biological replicates (one well per plate) from separate experiments (e.g., three different plates on three different days) and each well included multiple BrainSpheres which were considered technical replicates.

[1] = AUC over 13-day exposure, tcplfit2
[2] = tcplfit2 BMD at benchmark response (1.349*SD of baseline controls)
[3] = tcplfit2 output ACC, activity cutoff in Supplemental Table 1

`CCCC(CCC)C(=O)O` [Sodium valproate] was tested, and the “hitc Mean.Spheroid.Burst.Duration” value [1] was 0, the “hitc Mean.Spheroid.Burst.ISI” value [1] was 0 and the “hitc Mean.Spheroid.Burst.Peak.Firing.Rate” value [1] was 0. The “hitc Mean.Spheroid.Firing.Rate” value [1] was 0, the “hitc Mean.Spheroid.IBI” value [1] was 0 and the “hitc Mean.Spheroid.Nonburst.ISI” value [1] was 0. The “hitc Mean.Spheroid.Spikes.per.Burst” value [1] was 0, the “hitc Mean.Spheroid.Spikes.per.Burst.per.Electrode” value [1] was 0 and the “hitc Spheroid.Burst.Frequency” value [1] was 0. For the same compound, the “hitc Spheroid.Spike.Amplitude.90th.Percentile” value [1] was 0, the Percent active (metrics active out of the total number of metrics screened) was 0% and the “BMD Mean.Spheroid.Burst.Duration” value [2] was 91 µM. The “BMD Mean.Spheroid.Burst.Peak.Firing.Rate” value [2] was 85 µM, the “BMD Mean.Spheroid.Firing.Rate” value [2] was 1.4 µM and the “BMD Mean.Spheroid.IBI” value [2] was 79 µM. The “BMD Mean.Spheroid.Spikes.per.Burst” value [2] was 124 µM, the “BMD Mean.Spheroid.Spikes.per.Burst.per.Electrode” value [2] was 90 µM and the “BMD Spheroid.Burst.Frequency” value [2] was 88 µM. The “BMD Spheroid.Spike.Amplitude.90th.Percentile” value [2] was 84 µM, the “ACC Mean.Spheroid.Burst.Duration” value [3] was 82 µM and the “ACC Mean.Spheroid.Burst.ISI” value [3] was 82 µM. For the same compound, the “ACC Mean.Spheroid.Burst.Peak.Firing.Rate” value [3] was 79 µM, the “ACC Mean.Spheroid.Firing.Rate” value [3] was 1.9 µM and the “ACC Spheroid.Burst.Frequency” value [3] was 87 µM. The Hits (total number of active endpoints out of 10 MEA activity metrics, 13-day exposure) was 0.
